The values below come from ChEMBL document CHEMBL1139648, “Designing rapid onset selective serotonin re-uptake inhibitors. Part 1: Structure-activity relationships of substituted (1S,4S)-4-(3,4-dichlorophenyl)-N-methyl-1,2,3,4-tetrahydro-1-naphthaleneamine” (Bioorg Med Chem Lett, 2006).

Sequences of proteins named here, by UniProt entry; tags and fusion partners are left off.
UniProt P31645, whole entry: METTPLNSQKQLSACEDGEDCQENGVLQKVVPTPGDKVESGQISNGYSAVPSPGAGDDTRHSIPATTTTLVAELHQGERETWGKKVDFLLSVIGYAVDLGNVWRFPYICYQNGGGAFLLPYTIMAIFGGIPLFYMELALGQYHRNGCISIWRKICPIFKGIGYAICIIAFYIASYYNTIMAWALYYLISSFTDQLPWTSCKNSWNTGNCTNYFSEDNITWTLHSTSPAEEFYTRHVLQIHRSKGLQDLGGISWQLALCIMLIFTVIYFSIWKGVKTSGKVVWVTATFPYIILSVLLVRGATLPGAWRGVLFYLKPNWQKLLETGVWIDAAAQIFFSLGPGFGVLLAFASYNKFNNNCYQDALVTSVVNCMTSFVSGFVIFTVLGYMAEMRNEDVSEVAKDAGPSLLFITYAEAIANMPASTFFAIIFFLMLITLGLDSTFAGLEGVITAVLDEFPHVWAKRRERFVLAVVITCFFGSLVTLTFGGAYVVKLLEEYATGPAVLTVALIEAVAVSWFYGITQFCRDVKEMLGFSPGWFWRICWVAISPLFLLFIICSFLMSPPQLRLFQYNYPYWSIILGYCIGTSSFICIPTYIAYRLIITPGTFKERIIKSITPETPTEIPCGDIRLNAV

Molecules are shown by their SMILES.

In the experiment the target is Sodium-dependent serotonin transporter (Homo sapiens, UniProt P31645). Format: cell-based, HEK293.

On to `CN[C@H]1CC[C@@H](c2ccc(Cl)c(Cl)c2)c2ccc(S(=O)(=O)NC)cc21`, for which 5 nM corresponded to half-maximal inhibition (IC50).
For `CN[C@H]1CC[C@@H](c2ccc(Cl)c(Cl)c2)c2cc(C(=O)O)c(NS(C)(=O)=O)cc21` the value was 65 nM; for `CN[C@H]1CC[C@@H](c2ccc(Cl)c(Cl)c2)c2ccc(C(=O)OC)cc21`, 5 nM.
In the case of `CN[C@H]1CC[C@@H](c2ccc(Cl)c(Cl)c2)c2cccc(C(N)=O)c21`, half-maximal inhibition (IC50) was put at 8 nM.
As to `CN[C@H]1CC[C@@H](c2ccc(Cl)c(Cl)c2)c2ccc(C[S+](C)[O-])cc21` (some centres undefined), the IC50 was 340 nM.
For `CN[C@H]1CC[C@@H](c2ccc(Cl)c(Cl)c2)c2cc(C(=O)N(C)C)ccc21` the value was 7 nM; for `CN[C@H]1CC[C@@H](c2ccc(Cl)c(Cl)c2)c2cc(S(C)(=O)=O)ccc21`, 54 nM; for `CN[C@H]1CC[C@@H](c2ccc(Cl)c(Cl)c2)c2ccc(C(=O)O)cc21`, 90 nM.
The molecule `CN[C@H]1CC[C@@H](c2ccc(Cl)c(Cl)c2)c2cc(C(N)=O)c(NS(C)(=O)=O)cc21` had an IC50 of 24 nM.
